Earlier results on one substance are cited in article PMC11506537, “An 11-mer Synthetic Peptide Suppressing Aggregation of Aβ25-35 and Resolving Its Aggregated Form Improves Test Performance in an Aβ25-35-Induced Alzheimer’s Mouse Model” (Biomolecules, 2024).

This series concerns patients with AD. The settings on record: no reference at this sentence; cited from earlier work. The text has this: Alzheimer’s disease (AD) is the most common age-related neurodegenerative disorder worldwide. Amyloid-β (Aβ) 42, which is produced by the cleavage of amyloid precursor protein (APP) by β- or γ-secretases, is considered to cause AD [1, 2, 3]. […] Thus, the current main strategy is to develop Aβ antibodies and vaccines aimed at inhibiting Aβ aggregation. Recently, aducanumab, an antibody drug that inhibits Aβ aggregation, has been approved by the U.S. Food and Drug Administration. […] Lecanemab, the latest Aβ ant ...

As for “Aducanumab: antibody drug that inhibits Aβ aggregation”, the “effect on clinical manifestation of mild AD” value was “inhibit the clinical manifestation of mild AD”.
